{
  "sequences": {"note": "Amino acid sequences for entries named in this document (tags omitted).", "UniProt Q07820, whole entry": "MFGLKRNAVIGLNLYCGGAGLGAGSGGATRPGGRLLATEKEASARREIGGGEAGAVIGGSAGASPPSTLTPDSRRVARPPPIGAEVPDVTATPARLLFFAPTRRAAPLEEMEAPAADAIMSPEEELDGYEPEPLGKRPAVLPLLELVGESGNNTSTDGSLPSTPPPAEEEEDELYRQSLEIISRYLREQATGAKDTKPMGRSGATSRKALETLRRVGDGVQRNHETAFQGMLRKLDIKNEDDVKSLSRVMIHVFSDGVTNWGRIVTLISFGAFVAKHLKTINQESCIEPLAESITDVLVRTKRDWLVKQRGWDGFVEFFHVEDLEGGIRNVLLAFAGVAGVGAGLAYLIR", "UniProt Q07817, whole entry": "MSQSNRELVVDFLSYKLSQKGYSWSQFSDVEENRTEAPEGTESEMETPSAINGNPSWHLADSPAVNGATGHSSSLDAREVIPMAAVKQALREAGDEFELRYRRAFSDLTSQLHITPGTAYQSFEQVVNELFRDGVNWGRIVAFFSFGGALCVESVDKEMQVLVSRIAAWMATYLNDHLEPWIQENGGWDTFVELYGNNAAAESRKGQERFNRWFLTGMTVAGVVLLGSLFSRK"},
  "source": "patent US8487131B2",
  "about": "(Sanford-Burnham Medical Research Institute, priority 2009, dated 2013)",
  "key": {"[1]": {"settings": "rat", "from_the_text": "Next, we examined the pharmacological properties of the isomers as chirality could greatly affect such properties due to stereoselective metabolism. To test the pharmacological properties of diastereoisomers 11-14, we determined their in vitro rat plasma stability, rat microsomal stability, and cell membrane permeability (Table 4)."}, "Mcl-1": {"molecular_target": "Mcl-1 (Homo sapiens, UniProt Q07820)", "assay": "Competitive fluorescence polarization assay (FPA), Mcl-1", "type": "binding", "settings": "FITC-Bim BH3 peptide displacement", "method": "A Bak BH3 peptide (F-BakBH3) ([…]) was labeled at the N-terminus with fluorescein isothiocyanate (FITC) (Molecular Probes) and purified by HPLC. […] The wild-type and mutant Bak BH3 peptides were included in each assay plate as positive and negative controls, respectively. […] IC50 was determined by fitting the experimental data to a sigmoidal dose-response nonlinear regression model (SigmaPlot 10.0.1, Systat Software, Inc., San Jose, Calif., USA). Data reported are mean of three independent experiments±standard error (SE). […] Fluorescence polarization was measured after 10 min."}, "Bcl-XL": {"molecular_target": "Bcl-XL (Homo sapiens, UniProt Q07817)", "assay": "Isothermal Titration Calorimetry assay (ITC)", "type": "binding"}},
  "data": [
    {"smiles": "Cc1cc2c(C(=O)NC[C@@H](C)c3ccccc3)c(O)c(O)cc2c(O)c1-c1c(C)cc2c(C(=O)NC[C@H](C)c3ccccc3)c(O)c(O)cc2c1O", "note": "(atropisomer, axis not shown) [Compound 11]", "values": [
      {"measurement": "Microsomal Stability (T = 40 min)", "setting": "[1]", "result": "89.6 ± 7.0", "unit": "%"}
    ]},
    {"smiles": "Cc1cc2c(C(=O)NCC(C)c3ccccc3)c(O)c(O)cc2c(O)c1-c1c(C)cc2c(C(=O)NCC(C)c3ccccc3)c(O)c(O)cc2c1O", "note": "(single isomer, unassigned) [Compound 12]", "values": [
      {"measurement": "IC50", "setting": "Mcl-1", "result": 0.18, "unit": "µM"},
      {"measurement": "Microsomal Stability (T = 40 min)", "setting": "[1]", "result": "83.4 ± 8.1", "unit": "%"}
    ]},
    {"smiles": "Cc1cc2c(C(=O)NCC(C)c3ccccc3)c(O)c(O)cc2c(O)c1-c1c(C)cc2c(C(=O)NCC(C)c3ccccc3)c(O)c(O)cc2c1O", "note": "(single isomer, unassigned) [Compound 13]", "values": [
      {"measurement": "IC50", "setting": "Mcl-1", "result": 0.24, "unit": "µM"},
      {"measurement": "Kd", "setting": "Bcl-XL", "result": 0.4, "unit": "µM"},
      {"measurement": "Microsomal Stability (T = 40 min)", "setting": "[1]", "result": "86.3 ± 7.0", "unit": "%"}
    ]},
    {"smiles": "Cc1cc2c(C(=O)NCC(C)c3ccccc3)c(O)c(O)cc2c(O)c1-c1c(C)cc2c(C(=O)NCC(C)c3ccccc3)c(O)c(O)cc2c1O", "note": "(single isomer, unassigned) [Compound 14]", "values": [
      {"measurement": "IC50", "setting": "Mcl-1", "result": 0.24, "unit": "µM"},
      {"measurement": "Kd", "setting": "Bcl-XL", "result": 2, "unit": "µM"},
      {"measurement": "Microsomal Stability (T = 40 min)", "setting": "[1]", "result": "91.6 ± 1.6", "unit": "%"}
    ]}
  ]
}
